From ChEMBL document CHEMBL2010677, “Anti-inflammatory and PPAR transactivational effects of secondary metabolites from the roots of Asarum sieboldii” (Bioorg Med Chem Lett, 2012) come the findings set out here.

For this test, the system named is HepG2. Briefly: Inhibition of TNFalpha-induced NFkappaB transcriptional activity in human HepG2 cells pretreated for 1 hr before TNFalpha challenge by luciferase reporter gene analysis. The class given is cell-based.

SMILES strings stand for the structures.

In the case of `c1cc2c(cc1[C@H]1OC[C@H]3[C@@H]1CO[C@H]3c1ccc3c(c1)OCO3)OCO2` [ASARININ], the inhibition result is “Dose-dependent effect”. Then `c1cc2c(cc1[C@H]1OC[C@H]3[C@@H]1CO[C@@H]3c1ccc3c(c1)OCO3)OCO2` [SESAMIN], with “Dose-dependent effect”; and `CC=C/C=C\CC/C=C/C=C/C(=O)NCC(C)C`, with “Dose-dependent effect”.
